Source: PMC2748668 (Pharmacological research : the official journal of the …, 2009)

Assays:
[1] = test system: OATP1B1; conditions: cited from earlier work
[2] = test system: OATP1B3; conditions: cited from earlier work
[3] = target: T1, human OATP1B1 (Homo sapiens, UniProt Q9Y6L6)
T1 sequence (Q9Y6L6 1-691): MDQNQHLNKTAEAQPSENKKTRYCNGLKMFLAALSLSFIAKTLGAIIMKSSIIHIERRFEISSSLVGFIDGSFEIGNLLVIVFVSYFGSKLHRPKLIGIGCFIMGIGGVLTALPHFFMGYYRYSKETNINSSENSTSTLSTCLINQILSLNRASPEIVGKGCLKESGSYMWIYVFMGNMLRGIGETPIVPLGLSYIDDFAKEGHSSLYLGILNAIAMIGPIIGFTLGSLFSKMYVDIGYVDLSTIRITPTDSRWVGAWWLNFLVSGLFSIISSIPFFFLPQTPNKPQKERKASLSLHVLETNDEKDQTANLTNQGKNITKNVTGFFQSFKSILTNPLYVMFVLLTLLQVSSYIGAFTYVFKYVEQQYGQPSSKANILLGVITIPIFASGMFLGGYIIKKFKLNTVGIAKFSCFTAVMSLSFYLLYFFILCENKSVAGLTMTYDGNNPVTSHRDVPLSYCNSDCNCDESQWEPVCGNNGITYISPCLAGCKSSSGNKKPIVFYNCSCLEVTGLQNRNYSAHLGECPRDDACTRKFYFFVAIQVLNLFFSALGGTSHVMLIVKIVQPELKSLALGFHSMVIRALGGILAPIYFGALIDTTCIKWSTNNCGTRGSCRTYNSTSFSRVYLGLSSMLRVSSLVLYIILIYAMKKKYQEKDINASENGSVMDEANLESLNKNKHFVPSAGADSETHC

Row | Compound | Effect on OATP1B1-mediated estradiol-17β-glucuronide transport [1] | Effect on OATP1B3-mediated estradiol-17β-glucuronide transport [2] | Inhibition of estradiol-17β-glucuronide uptake (in words) [3]
1 | Clc1ccccc1C(c1ccccc1)(c1ccccc1)n1ccnc1 [Clotrimazole] | inhibited | stimulated | 
2 | C[C@H](CCC(=O)NCCS(=O)(=O)O)[C@H]1CC[C@H]2[C@@H]3[C@H](O)C[C@@H]4C[C@H](O)CC[C@]4(C)[C@H]3C[C@H](O)[C@]12C [Taurocholic acid] |  |  | moderate inhibition
